Experimental data from ChEMBL document CHEMBL4828761, “Development and crystallography-aided SAR studies of multifunctional BuChE inhibitors and 5-HT6R antagonists with β-amyloid anti-aggregation properties” (Eur J Med Chem, 2021).
Active and inactive are the calls of the source. The calls are words filed in the database; no cut-off is given here.

By UniProt entry, the sequences of proteins in these tests, tags left out.
UniProt P81908, whole entry: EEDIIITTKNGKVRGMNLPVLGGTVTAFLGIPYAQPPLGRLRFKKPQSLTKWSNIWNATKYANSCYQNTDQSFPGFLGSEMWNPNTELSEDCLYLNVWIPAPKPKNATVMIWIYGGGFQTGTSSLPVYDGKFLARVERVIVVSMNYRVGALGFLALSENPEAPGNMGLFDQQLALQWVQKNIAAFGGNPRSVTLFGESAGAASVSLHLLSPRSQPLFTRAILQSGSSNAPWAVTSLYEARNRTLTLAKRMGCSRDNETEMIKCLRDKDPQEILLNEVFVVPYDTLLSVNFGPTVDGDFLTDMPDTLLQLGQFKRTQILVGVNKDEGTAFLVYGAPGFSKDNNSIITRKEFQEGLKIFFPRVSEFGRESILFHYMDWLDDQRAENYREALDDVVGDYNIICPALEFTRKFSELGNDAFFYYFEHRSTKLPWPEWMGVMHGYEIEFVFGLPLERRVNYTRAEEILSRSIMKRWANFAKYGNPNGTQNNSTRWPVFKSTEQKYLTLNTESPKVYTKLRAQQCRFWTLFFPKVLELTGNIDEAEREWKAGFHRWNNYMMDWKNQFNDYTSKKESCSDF

Legend:
[1] = target: Cholinesterase (Equus caballus) (UniProt P81908); experiment: Non-competitive inhibition of equine serum BuChE using BTC as substrate by Lineweaver-Burk plot analysis; type: cell-free
[2] = target: Cholinesterase (Equus caballus) (UniProt P81908); experiment: Non-competitive inhibition of equine serum BuChE using BTC as substrate by Cornish-Bowden plot analysis; type: cell-free

Row | Compound | inhibition [1] | inhibition [2]
1 | O=S(=O)(c1ccccc1)n1ccc2c(OCCNCC3CCCCC3)cccc21 | Active | Active
2 | O=S(=O)(c1ccccc1)n1ccc2c(OCCNCc3ccccc3)cccc21 | Active | Active
